# Test results taken from PubChem BioAssay AID2101 (National Center for Advancing Translational Sciences (NCATS), 2009).
# The entries are a selection whose mix differs from that of the whole data set. Inconclusive results are not listed. The source made the active and inactive calls. The call rests on the fitted dose curve; in most records, active means well fitted inhibition curve with a large enough effect; inconclusive means small, poorly fitted or top-dose-only effect, or effect the other way, or another doubt; inactive means no such curve, though single readings can be large or run the other way.
# Target: Lysosomal acid glucosylceramidase (Homo sapiens) (UniProt P04062)
# Test: qHTS Assay for Inhibitors and Activators of N370S glucocerebrosidase as a Potential Chaperone Treatment of Gaucher Disease;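 further: 0% = full enzyme activity and -100% = no enzyme basal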
# Settings: N370S GC spleen homogenate, 4MU-glucoside fluorescence; at 59.4 µM (top of the series)
# Excerpt: NIH Chemical Genomics Center [NCGC]
# NIH Molecular Libraries Probe Production Centers Network [MLPCN]
# Assay Submitter (PI): Wei Zheng
# Glucocerebrosidase (GC) catalyzes the hydrolysis of beta-glucocerebroside to glucose and ceramide in lysosomes. Mutations in the glucocerebrosidase gene result in Gaucher disease, an autosomal recessive lysosomal storage disorder. Many of the mutations encountered in patients with Gaucher disease are missense alterations that may cause misfolding, decreased stability and/or mistrafficking of this lysosomal protein. […] These inhibitors include iminosugar analogs and three non-iminosugar inhibitors identified from a previous HTS of 62,000 compounds with the wild type recombinant enzyme. […]
# This is a fluorogenic enzyme assay with 4-methylumbelliferyl-beta-D-glucopyranoside as the substrate and N370S glucocerebrosidase from human spleen homogenate as the enzyme preparation. Upon the hydrolysis of this fluorogenic substrate, the resulting product, […] which can be detected by a standard fluorescence plate reader. […] The AC50 values were determined from concentration-response data modeled with the standard Hill equation. […]
# (6) Detect the assay plate in a ViewLux plate reader (PerkinElmer) with Ex=365 nm and Em=440nm. […]
row,SMILES,"activity change, negative = inhibition"
1,O=[N+]([O-])c1cc([N+](=O)[O-])c(CCNc2ccccc2)c([N+](=O)[O-])c1,inactive: -12%
2,COc1ccc(OP(C)(=O)Nc2ccccn2)cc1 (configuration not stated),inactive: -1.45%
